According to patent US20190105337A1, “METHODS OF TREATING BACTERIAL INFECTIONS” (priority 2015, published 2019):

How the values were obtained:
[1] = 2 gram dose, cited from earlier work
P. aeruginosa strains = type: cell-based, Pseudomonas aeruginosa
Method: The pharmacokinetics simulation was based on data from the clinical study disclosed in Example 2.
In Vitro PK-PD Model: Six medium sized hollow-fiber cartridges (FiberCell Systems) were used per experiment. Three strains studied in duplicate were used for each experiment. Log-phase cells were inoculated and incubated for 2 hours prior to the start of treatment to achieve about 10^8 CFU/mL. Target PK parameters are listed in Tables E and F. The exposures were based on the published literatures disclosed in Example 2. Samples were collected from the central compartment for the determination of drug concentrations over a 32 hour period and were analyzed using an LC-MS/MS method.

For C[C@@H](O)[C@H]1C(=O)N2C(C(=O)O)=C(S[C@@H]3CN[C@H](C(=O)N(C)C)C3)[C@H](C)[C@H]12 [meropenem, Meropenem], the penetration ratio ([1]; 1-hour sampling time) is listed as 0.05, the penetration ratio ([1]; 3-hour sampling time) is listed as 0.22 and the resistance development (P. aeruginosa strains; 2 g q8h by 3 hour infusion, strain with an MIC of 8 mg/L) is listed as “Resistance developed”. For the same compound, the “Resistance development over 32 hours” value (P. aeruginosa strains; P. aeruginosa PAM3353, human equivalent 2 g q8h by 3 hour infusion) was “*Resistance Developed”.

Read-outs that look alike come from different tables or passages of the source.
